Measurements as given in US20210325406A1 (priority 2018, published 2021).
“And” between values parts separate entries of the source, which are not always exact repeats. Equal values may be shown once.

Protein sequences, listed by entry. Tags and fused reporters are not part of them. Residues count along the entry.
UniProt A0QR29, 28-211 D117N/D118M/D120N/D145R/D161R/E166K limits assumed: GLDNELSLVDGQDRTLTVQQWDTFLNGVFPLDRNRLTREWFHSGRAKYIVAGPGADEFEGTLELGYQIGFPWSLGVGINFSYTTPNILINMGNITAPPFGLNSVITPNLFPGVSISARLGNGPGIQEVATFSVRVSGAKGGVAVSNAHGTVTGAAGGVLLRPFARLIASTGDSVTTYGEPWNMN

Key:
Assay type in all cases: binding
[1] = target: T1, Au(III) embedded MspA-M (Mycolicibacterium smegmatis, UniProt A0QR29, D117N/D118M/D120N/D145R/D161R/E166K)
[2] = target: MspA-M (Mycolicibacterium smegmatis, UniProt A0QR29, D117N/D118M/D120N/D145R/D161R/E166K)
[3] = target: T1, Au(III) embedded MspA-M; remark: listed apart in the source

SMILES	Dwell time (τoff, Hcy) [1]	mean ΔI/I0, three independent experiments [1]	ΔI/I0, Gaussian fitting, simultaneous discrimination [1]	biothiol binding events without Au(III) embedment [2]	Dwell time (τoff, Cys) [1]	Dwell time (τoff) [3]	Current blockade (ΔI0−1, Cys) [1] [pA]	Cys sensing events as share of all detectable events [1] [%]
N[C@@H](CCS)C(=O)O [L-Homocysteine, L-homocysteine]	2.94 ms and 1.65 ms and 2.50 ms	0.128±0.004	0.128±0.013	No Cys, Hcy or GSH binding event were observed				
N[C@@H](CCC(=O)N[C@@H](CS)C(=O)NCC(=O)O)C(=O)O [L-Glutathione, L-glutathione]		0.154±0.011		No Cys, Hcy or GSH binding event were observed	2.82 ms and 2.27 ms and 2.19 ms			
CSCC[C@H](N)C(=O)O [L-Methionine, L-methionine]						8.07 ± 3.18 s and 10.87 ± 1.87 s and 11.22 ± 2.35 s		
N[C@@H](CS)C(=O)O [L-Cysteine, L-cysteine]		0.104±0.0006	0.105±0.005	No Cys, Hcy or GSH binding event were observed	3.18 ms and 3.48 ms and 3.04 ms		25 ± 2	96
